The chains behind the UniProt entries cited, without tags or fusion partners.
UniProt P35368, whole entry: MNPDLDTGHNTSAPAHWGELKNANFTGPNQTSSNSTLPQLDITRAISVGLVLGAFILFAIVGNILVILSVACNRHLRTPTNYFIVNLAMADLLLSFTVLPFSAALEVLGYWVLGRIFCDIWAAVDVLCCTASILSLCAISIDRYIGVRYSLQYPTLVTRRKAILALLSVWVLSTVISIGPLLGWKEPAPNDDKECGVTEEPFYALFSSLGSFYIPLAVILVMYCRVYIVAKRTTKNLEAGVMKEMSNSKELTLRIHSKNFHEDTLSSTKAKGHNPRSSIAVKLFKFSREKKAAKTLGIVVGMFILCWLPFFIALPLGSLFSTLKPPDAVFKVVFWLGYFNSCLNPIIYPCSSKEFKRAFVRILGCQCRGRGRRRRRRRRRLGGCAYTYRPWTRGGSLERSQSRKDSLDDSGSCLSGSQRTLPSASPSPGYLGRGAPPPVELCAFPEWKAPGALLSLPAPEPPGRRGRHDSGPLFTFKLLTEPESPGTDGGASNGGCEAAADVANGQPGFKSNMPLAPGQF

In publication PMC7327383, “The affinity and selectivity of α‐adrenoceptor antagonists, antidepressants, and antipsychotics for the human α1A, α1B, and α1D‐adrenoceptors” (Pharmacology Research & Perspectives, 2020):

Target: human α1B-adrenoceptor (Homo sapiens, UniProt P35368)
Assay: [3H]prazosin whole-cell competition binding, CHO-α1B cells

**Q.** How did the pKd turn out when COC(=O)C1=C(C)NC(C)=C(C(=O)NCCCN2CCC(c3ccccc3)(c3ccccc3)CC2)C1c1ccc([N+](=O)[O-])cc1 (stereo not shown) [SNAP5089] was run?
**A.** 5.64

pKd: −log10 of the molar value.
